# Antibody variant affinities, Ab-14 light chain, assay B

Target: peptide PDVDLGDISGINAS, taken from heptad repeat 2 (HR2) of SARS-CoV-2 spike.

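Phage display of a naive human antibody library on the peptide gave the parent. This is the validation round: designs drawn from the data on random variants, tested in the same kind of assay. Their group label is 14L_En_Gen (En: ensemble of fine-tuned language models; Gen: genetic algorithm). The assay is AlphaSeq: two haploid yeast populations carry antibody and antigen on their surface. Pairs that bind mate more often; barcode pairs of the diploids are counted by sequencing. Read counts were normalised to the haploid input and turned into Kd by a linear fit to BCL2-family pairs of known affinity, for each replicate. There are six technical replicates.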

Each scFv is VH, the linker GGGGSGGGGSGGGGS, VL, as in the parent Ab-14, and differs from it in the CDRs of the light chain only.
VH: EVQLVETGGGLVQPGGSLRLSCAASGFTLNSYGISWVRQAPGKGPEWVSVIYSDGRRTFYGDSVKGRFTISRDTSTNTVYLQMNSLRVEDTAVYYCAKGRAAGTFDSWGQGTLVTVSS
VL: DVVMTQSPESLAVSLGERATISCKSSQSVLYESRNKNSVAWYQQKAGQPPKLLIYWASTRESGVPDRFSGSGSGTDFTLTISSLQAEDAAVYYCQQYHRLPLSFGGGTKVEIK

Variants are written as CDR1, CDR2 and CDR3 of the light chain (limits as in the source). Parent: KSSQSVLYESRNKNSVA, WASTRES, QQYHRLPLS.
The read-out is the apparent dissociation constant on a log10 scale (nM): the lower, the stronger.
A mean of the replicates is given; it leaves out those without a signal.
An entry "nd" has no value in the source: the pair was not observed among the diploids in that replicate. This suggests poor binding but is not conclusive.

The variant IVSQLMLWGYHAKNSIA, EAQTRDN, QQYDRLPLF gave 0.89, 0.85, 0.73, nd, 1.25, 1.29 (mean 1.00; controls 0 of 18).
The variant MISQLYNMGTFAINSVA, QAELRND, QQYDRLPLT gave nd, nd, nd, nd, nd, nd (controls 0 of 18).
The variant KISQMVKVGMTHGNSIA, EEATRAD, QQYHRLPLA gave 0.92, 0.61, 0.23, 0.54, 0.35, 0.54 (mean 0.53; controls 0 of 18).
The variant KFSQMSNSMSVSHSAVA, EMSTRPD, QQYNRLPLA gave 0.31, 0.42, 0.26, 0.60, 0.30, 0.31 (mean 0.37; controls 1 of 18).
The variant HITYGMMVHGRHSSSIA, QAETRAK, QQYDRLPLA gave 2.39, 1.68, 3.49, 3.38, 2.12, 3.39 (mean 2.74; controls 0 of 18).
The variant MLSEVLHMLGAKKNSIA, DLVMRAN, QQYHRLPLF gave 1.72, 0.78, 1.49, 0.67, 0.31, 1.06 (mean 1.01; controls 1 of 18).
The variant KISQMVRVGATHNNSIA, EEVTRAK, QQYHRLPLS gave 1.07, 0.04, 2.34, 2.36, 0.78, 1.39 (mean 1.33; controls 0 of 18).
The variant HMSNLTLQGMRMRNSVA, QMTTREN, QQYDHLPLS gave 1.85, 1.41, 2.28, 0.90, 1.47, 1.36 (mean 1.54; controls 0 of 18).
The variant KIGMTLNQLMHKKNNVA, DLVTREA, QQYHRLPLS gave 0.64, 0.64, 0.58, 0.47, 0.48, 1.29 (mean 0.68; controls 1 of 18).
The variant MISQLYNMGQFAINSVA, QASIRNE, QQYDRLPLI gave 1.54, 1.55, 1.69, 3.16, 1.77, 2.09 (mean 1.97; controls 1 of 18).
The variant HISMLTLQGMRHRNSVA, QMTTREN, QQYDRLPLS gave 2.74, 1.87, 1.85, 1.66, 1.64, 1.71 (mean 1.91; controls 1 of 18).
The variant KIGQTLNQLMHQKNNVA, DLVMREQ, QQYHRLPLS gave 0.98, 0.79, 0.78, 1.37, 0.69, 1.14 (mean 0.96; controls 0 of 18).
The variant TISQMTSLFSQSINNVA, EVSMREP, QQYDRLPLS gave 2.09, 1.53, 1.61, nd, 0.61, nd (mean 1.46; controls 1 of 18).
The variant KISMLSNQTFSQSNNVA, EMVTRER, QQYNRLPLS gave 1.73, 1.66, 1.29, 0.87, 1.29, 1.08 (mean 1.32; controls 0 of 18).
The variant MIYGAQRELGRAANSIA, DNVTRYS, QQYERLPLS gave nd, nd, nd, 2.51, nd, nd (controls 0 of 18).
The variant RLSASSGIQSVERNSVA, QNSTRES, QQYDHLPLS gave 2.46, 2.33, nd, 2.80, nd, nd (mean 2.53; controls 2 of 18).
The variant HMSALTMLGMRNRNSVA, QMTTREN, QQYDRLPLA gave 1.06, 1.13, 0.92, 0.89, 0.94, 1.02 (mean 0.99; controls 1 of 18).
The variant KISMVAGHMSMSRNNVA, EMATREN, QQYDRLPLS gave 0.96, 1.36, 0.78, 0.77, 0.79, 0.70 (mean 0.89; controls 0 of 18).
The variant MISQVMNMLTHTGNNVA, DLAERED, QQYFRLPLS gave nd, nd, 1.42, nd, 2.61, nd (mean 2.02; controls 0 of 18).
The variant KISMLHNQTFEQSNNVA, EMVTRMK, QQYNRLPLS gave 1.38, 1.27, 0.96, 1.24, 1.17, 1.07 (mean 1.18; controls 1 of 18).
The variant MISQVMNTLTRIGNNVA, DLAEREN, QQYFRLPLS gave 0.38, 0.94, 1.19, 0.69, 0.44, 0.43 (mean 0.68; controls 0 of 18).
The variant MISSISSMGQFAKNSVA, QASIRNS, QQYDRLPLI gave nd, 1.26, nd, 2.00, nd, 2.24 (mean 1.83; controls 0 of 18).
The variant MVSQLMLWGLHTKNSIA, EAQTRIN, QQYDRLPLF gave 1.36, 3.11, 1.41, nd, 3.09, 2.17 (mean 2.23; controls 1 of 18).
The variant KIGMTLNQLMHTKNNVA, DLVTREN, QQYHRLPLS gave -0.13, 0.10, 0.58, -0.54, -0.36, 0.12 (mean -0.04; controls 0 of 18).
The variant TIQQMMSLFSQTINNVA, EVSTREN, QQYDRLPLS gave 1.34, nd, 1.19, 1.77, 0.46, 0.27 (mean 1.01; controls 0 of 18).
The variant KLVQFMNRGTHHTSNIA, DAALREE, QQYARLPLA gave 0.12, 0.04, -0.03, 0.01, 0.38, -0.03 (mean 0.08; controls 0 of 18).
The variant MISQLYNMGQFAINSVA, QAETRCN, QQYFRLPLE gave 1.15, 1.15, 1.65, 1.44, 1.56, 2.45 (mean 1.57; controls 1 of 18).
The variant MISQLYNMGTFAINSVA, QASVRNE, QQYDRLPLM gave 2.07, nd, 2.91, nd, 3.02, nd (mean 2.67; controls 1 of 18).
The variant MLSQMTGLGQKVRNSVA, QASMRIN, QQYHRLPLI gave nd, nd, 2.22, 1.62, 1.89, 4.19 (mean 2.48; controls 1 of 18).
The variant IVSQVMLWGLHAKNSIA, EAQTRIN, QQYDRLPLF gave 2.66, nd, 1.27, 2.56, 1.80, 2.74 (mean 2.21; controls 0 of 18).
The variant TITQFMDNLAKNRNNVA, DTSTLGD, QSYDRLPLS gave -0.14, 0.03, -0.58, -0.57, -0.14, -0.26 (mean -0.27; controls 0 of 18).
The variant HMSMLTLQGMRHTNSVA, QMTTREN, QQYDRLPLM gave 0.45, 0.61, 0.85, 0.43, 0.37, 0.77 (mean 0.58; controls 1 of 18).
The variant QIYQAMHTLMQAKNNVA, DVNERGD, QQYYRLPLS gave 0.12, -0.06, -0.17, 0.16, 0.15, 0.10 (mean 0.05; controls 0 of 18).
The variant TISMHTSLFSQTINNVA, EVSTRER, QQYDRLPLV gave 1.15, 1.29, 1.04, 1.21, 0.94, 1.32 (mean 1.16; controls 2 of 18).
The variant TLYGLSVSMSKNVNNVA, EMTTRED, QQYDRLPLI gave nd, 0.49, 0.54, 0.83, 1.25, 0.37 (mean 0.70; controls 0 of 18).
The variant MMSQVTGQGQRHRNNVA, QTSTREP, QQYDRLPLI gave 1.04, 1.17, 1.05, 0.97, 1.18, 1.22 (mean 1.10; controls 0 of 18).
The variant QLTMITGHMSVSKNNVA, EMETREN, QQYDRLPLS gave 1.14, 0.97, 1.04, 1.11, 0.54, 0.57 (mean 0.89; controls 0 of 18).
The variant MLSQMWAIGSKVSNSVA, QASMRFN, QQYDRLPLI gave 2.81, 1.01, 0.85, 1.13, 2.08, 1.89 (mean 1.63; controls 1 of 18).
The variant KFSNMSNSMSVSKSAVA, EMSTRPE, QQYNRLPLA gave 1.69, 0.84, 0.60, 0.91, 1.05, 1.05 (mean 1.02; controls 2 of 18).
The variant KLTMITGLEKVSTSNVA, EMETREE, QQYNRLPLS gave 0.96, 0.85, 1.70, 1.46, 1.24, 1.72 (mean 1.32; controls 0 of 18).
The variant TIGASLMYGSRNRSNVA, EVSERLN, QQYDRLPLL gave 1.79, 0.98, 1.34, 1.42, 1.63, 1.55 (mean 1.45; controls 0 of 18).

A selection of 3 entries from above:

With HISMLTLQGMRHRNSVA, QMTTREN, QQYDRLPLS the result was 2.74, 1.87, 1.85, 1.66, 1.64, 1.71 (mean 1.91; controls 1 of 18).
With IVSQLMLWGYHAKNSIA, EAQTRDN, QQYDRLPLF the result was 0.89, 0.85, 0.73, nd, 1.25, 1.29 (mean 1.00; controls 0 of 18).
With MLSQMTGLGQKVRNSVA, QASMRIN, QQYHRLPLI the result was nd, nd, 2.22, 1.62, 1.89, 4.19 (mean 2.48; controls 1 of 18).

Nonspecific signal, from three strains lacking the peptide, appeared in 4% of pairings of all light chain designs, centred on 2.64 (5% of these signals below 1.59); values are not corrected for it. For each scFv, signals with the empty controls are counted beside the result.
Of ten entries with the parent sequence, four were seen in most replicates (averages 0.34 to 2.37), three in one and three in none, so single entries are noisy.
The range of this assay differs from that of the first round, and the authors advise against merging the two.
In the paper, a design with two or fewer of six values counts as a poor binder.

The measurements come from Li et al. 2023 (doi:10.1038/s41467-023-39022-2) through the FLAb antibody collection.